Measurements published in patent US6623933B1 (priority 1999, dated 2003).
Like-named read-outs stand apart in the source and are kept apart here.

Chains of the proteins cited; added tags and fusions are not shown. Residues count along the entry.
UniProt Q00959, 23-1464: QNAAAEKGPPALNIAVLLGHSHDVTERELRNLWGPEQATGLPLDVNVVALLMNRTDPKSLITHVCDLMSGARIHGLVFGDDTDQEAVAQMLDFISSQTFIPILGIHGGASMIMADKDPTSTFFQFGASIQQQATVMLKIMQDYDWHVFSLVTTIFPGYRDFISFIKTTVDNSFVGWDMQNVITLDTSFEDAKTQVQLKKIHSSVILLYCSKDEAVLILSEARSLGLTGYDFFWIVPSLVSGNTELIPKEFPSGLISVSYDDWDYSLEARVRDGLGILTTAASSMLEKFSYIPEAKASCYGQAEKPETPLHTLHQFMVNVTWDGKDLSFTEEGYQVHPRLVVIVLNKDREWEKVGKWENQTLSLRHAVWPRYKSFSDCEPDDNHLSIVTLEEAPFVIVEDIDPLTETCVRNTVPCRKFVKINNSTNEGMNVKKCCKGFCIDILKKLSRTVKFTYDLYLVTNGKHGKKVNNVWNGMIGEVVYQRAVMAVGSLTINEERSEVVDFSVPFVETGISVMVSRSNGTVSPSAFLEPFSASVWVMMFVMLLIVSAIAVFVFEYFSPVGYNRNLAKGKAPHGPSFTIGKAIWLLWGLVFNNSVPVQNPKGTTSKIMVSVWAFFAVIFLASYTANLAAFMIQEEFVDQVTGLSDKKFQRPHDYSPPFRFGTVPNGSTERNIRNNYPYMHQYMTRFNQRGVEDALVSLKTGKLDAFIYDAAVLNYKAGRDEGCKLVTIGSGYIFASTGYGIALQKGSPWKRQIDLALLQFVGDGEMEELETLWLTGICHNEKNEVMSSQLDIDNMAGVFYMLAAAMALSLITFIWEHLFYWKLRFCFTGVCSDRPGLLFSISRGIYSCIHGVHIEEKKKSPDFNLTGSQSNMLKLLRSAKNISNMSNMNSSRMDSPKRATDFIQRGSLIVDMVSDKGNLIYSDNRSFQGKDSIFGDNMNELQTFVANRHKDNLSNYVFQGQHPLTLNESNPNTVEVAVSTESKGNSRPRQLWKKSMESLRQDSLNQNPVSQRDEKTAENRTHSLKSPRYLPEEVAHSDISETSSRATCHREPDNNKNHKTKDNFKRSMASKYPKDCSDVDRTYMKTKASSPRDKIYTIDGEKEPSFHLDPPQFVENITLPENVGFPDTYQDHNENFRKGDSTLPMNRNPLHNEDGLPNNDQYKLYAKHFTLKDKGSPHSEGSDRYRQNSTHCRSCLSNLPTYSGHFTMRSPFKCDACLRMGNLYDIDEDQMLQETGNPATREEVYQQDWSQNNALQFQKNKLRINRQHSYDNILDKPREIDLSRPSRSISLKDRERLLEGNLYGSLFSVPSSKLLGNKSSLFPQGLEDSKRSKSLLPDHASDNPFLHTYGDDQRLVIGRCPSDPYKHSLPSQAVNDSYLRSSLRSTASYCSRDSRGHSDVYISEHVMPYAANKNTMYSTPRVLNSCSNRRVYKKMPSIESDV
UniProt Q00961, 20-1237: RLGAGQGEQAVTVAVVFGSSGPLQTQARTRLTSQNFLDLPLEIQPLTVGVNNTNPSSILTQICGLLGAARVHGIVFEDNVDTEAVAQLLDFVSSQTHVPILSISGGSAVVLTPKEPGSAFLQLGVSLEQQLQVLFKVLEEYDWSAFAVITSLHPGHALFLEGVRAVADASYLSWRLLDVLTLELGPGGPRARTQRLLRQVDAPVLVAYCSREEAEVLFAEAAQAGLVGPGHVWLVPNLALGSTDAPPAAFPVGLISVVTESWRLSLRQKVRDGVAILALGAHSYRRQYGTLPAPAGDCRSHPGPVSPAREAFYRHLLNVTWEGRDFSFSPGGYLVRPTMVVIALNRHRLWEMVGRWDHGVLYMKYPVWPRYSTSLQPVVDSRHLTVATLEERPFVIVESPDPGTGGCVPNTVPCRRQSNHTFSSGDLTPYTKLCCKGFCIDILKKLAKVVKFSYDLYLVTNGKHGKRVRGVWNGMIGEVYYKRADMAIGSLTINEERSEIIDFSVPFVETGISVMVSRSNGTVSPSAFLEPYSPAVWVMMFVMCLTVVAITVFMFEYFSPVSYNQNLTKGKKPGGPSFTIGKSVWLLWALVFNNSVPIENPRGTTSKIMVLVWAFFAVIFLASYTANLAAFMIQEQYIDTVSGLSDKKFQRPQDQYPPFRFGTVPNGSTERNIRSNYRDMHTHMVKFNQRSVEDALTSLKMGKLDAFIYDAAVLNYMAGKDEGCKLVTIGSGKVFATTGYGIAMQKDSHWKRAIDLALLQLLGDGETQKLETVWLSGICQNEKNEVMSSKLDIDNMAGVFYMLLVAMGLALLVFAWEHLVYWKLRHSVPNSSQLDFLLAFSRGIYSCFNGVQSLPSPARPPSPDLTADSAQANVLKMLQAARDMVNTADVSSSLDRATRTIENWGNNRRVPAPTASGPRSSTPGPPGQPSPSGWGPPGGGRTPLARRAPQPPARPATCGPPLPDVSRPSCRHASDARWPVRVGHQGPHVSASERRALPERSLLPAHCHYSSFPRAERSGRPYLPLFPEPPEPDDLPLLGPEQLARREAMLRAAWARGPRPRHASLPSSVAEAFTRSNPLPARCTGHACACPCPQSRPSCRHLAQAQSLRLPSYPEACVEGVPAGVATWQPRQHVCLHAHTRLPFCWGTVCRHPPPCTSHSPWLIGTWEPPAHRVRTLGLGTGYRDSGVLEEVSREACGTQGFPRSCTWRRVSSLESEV
UniProt P19492, 23-888: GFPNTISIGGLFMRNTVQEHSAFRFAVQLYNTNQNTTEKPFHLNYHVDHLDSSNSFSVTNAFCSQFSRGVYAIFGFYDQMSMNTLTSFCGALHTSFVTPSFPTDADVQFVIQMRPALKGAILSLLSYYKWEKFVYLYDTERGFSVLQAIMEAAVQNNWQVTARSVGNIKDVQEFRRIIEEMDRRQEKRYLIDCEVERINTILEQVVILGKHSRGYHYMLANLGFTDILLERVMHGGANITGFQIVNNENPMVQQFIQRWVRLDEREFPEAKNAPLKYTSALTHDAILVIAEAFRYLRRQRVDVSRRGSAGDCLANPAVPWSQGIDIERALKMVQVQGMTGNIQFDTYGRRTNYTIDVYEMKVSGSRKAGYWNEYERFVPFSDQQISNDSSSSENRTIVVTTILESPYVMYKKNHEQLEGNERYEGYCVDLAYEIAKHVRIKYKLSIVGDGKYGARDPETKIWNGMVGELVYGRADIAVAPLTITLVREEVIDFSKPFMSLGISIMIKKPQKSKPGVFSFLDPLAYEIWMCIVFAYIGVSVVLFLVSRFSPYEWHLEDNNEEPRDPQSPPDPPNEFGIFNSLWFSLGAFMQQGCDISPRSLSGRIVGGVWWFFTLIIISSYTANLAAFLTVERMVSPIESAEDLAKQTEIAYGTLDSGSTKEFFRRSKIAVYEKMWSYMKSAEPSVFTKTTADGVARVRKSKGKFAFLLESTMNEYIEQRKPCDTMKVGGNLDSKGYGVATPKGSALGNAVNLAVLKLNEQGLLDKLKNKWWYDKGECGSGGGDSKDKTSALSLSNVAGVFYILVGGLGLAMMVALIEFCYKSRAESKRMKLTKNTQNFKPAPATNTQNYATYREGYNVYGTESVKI
UniProt Q00960, 27-1482: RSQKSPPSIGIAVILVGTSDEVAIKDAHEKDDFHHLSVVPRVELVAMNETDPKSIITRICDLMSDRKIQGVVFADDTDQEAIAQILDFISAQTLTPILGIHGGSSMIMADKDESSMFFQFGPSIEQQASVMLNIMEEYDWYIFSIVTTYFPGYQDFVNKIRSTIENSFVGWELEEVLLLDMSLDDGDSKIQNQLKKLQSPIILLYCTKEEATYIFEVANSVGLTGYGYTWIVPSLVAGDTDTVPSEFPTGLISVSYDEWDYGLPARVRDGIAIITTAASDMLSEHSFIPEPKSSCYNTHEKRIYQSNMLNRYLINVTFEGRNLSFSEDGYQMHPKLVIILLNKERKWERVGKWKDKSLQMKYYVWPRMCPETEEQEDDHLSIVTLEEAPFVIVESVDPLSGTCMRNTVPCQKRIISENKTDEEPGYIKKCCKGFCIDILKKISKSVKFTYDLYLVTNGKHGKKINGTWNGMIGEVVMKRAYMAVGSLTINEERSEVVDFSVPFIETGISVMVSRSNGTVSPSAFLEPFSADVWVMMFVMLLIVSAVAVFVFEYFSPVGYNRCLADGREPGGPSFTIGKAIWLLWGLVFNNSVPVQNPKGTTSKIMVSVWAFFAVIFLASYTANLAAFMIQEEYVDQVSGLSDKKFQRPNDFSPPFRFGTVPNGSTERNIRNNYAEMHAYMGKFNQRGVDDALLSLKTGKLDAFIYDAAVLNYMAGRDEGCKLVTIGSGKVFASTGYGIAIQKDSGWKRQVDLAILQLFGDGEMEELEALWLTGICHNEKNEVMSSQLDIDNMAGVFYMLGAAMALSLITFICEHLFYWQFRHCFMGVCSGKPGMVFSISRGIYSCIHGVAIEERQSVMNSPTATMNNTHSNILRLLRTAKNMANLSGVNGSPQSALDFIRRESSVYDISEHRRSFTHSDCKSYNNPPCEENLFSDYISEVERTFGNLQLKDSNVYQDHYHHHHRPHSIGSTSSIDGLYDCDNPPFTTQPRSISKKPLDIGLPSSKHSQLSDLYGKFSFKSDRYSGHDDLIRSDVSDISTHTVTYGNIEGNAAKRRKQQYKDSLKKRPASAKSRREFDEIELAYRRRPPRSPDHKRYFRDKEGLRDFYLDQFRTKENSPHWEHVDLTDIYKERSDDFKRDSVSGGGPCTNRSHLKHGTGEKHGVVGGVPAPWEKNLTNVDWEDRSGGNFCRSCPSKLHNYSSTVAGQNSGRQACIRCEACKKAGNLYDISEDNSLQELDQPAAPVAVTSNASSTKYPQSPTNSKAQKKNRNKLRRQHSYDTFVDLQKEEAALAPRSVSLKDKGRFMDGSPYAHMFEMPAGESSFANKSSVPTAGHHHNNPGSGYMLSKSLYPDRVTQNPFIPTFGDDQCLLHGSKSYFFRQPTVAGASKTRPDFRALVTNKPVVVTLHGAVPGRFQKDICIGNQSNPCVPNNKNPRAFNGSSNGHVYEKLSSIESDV
UniProt Q62645, 28-1323: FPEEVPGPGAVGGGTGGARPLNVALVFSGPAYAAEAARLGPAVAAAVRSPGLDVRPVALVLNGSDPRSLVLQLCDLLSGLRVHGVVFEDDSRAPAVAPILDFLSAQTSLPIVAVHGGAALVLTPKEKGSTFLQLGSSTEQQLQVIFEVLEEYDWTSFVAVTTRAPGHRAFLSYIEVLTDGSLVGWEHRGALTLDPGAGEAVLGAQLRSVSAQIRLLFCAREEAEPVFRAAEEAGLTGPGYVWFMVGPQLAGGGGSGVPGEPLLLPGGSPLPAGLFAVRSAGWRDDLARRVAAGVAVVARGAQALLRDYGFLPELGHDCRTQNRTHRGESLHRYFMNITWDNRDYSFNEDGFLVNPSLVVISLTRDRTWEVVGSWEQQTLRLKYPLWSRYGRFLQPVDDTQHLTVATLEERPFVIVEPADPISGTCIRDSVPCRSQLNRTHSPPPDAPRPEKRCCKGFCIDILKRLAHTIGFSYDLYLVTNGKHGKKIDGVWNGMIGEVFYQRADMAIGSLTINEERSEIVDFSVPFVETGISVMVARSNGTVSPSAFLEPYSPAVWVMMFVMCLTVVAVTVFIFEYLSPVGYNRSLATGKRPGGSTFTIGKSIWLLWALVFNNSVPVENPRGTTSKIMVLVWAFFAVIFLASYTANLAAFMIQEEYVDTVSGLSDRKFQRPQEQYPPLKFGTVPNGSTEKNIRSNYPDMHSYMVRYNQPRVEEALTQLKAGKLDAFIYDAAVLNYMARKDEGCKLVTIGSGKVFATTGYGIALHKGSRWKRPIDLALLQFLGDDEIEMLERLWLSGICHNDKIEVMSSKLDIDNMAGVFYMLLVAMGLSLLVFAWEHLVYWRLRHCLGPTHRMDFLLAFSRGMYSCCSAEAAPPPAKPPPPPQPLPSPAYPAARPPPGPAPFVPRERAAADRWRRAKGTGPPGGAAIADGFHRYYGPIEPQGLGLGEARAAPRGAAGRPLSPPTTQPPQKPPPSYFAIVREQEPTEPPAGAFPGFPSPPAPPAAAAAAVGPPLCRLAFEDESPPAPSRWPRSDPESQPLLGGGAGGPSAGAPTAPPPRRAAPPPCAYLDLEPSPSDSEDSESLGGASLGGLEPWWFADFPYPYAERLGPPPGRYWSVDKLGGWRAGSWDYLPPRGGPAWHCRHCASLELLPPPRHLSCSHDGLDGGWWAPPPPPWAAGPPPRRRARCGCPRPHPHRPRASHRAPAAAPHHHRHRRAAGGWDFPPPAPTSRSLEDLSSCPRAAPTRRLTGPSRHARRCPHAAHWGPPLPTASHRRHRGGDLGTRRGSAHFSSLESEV

Columns and labels:
NR1/NR2A (NR1100) = NR1/NR2A (NR1100) (Rattus norvegicus, UniProt P35439+Q00959); conditions: read-out: PS EC50, 80 μM NMDA, 10 μM glycine
NR1100 NMDA receptor = target: T1, NR1100 NMDA receptor (Rattus norvegicus, UniProt P35439); experiment: NMDA-induced currents, Xenopus oocytes injected with NR1100 cRNA only, Example 1; type: cell-based; conditions: 300 μM NMDA, read-out: steroid EC50, modulation of NMDA response
T1 construct: expressed in transfected cells; host or cells: Xenopus oocytes injected with NR1100 cRNA only
Description: (§1) Plasmids were obtained from the following individuals: Dr. Suzanne Zukin (Albert Einstein College of Medicine, Bronx, N.Y.), NR1100; Dr. Shigetada Nakanishi (Kyoto University Faculty of Medicine, Kyoto, Japan), NR2A; Dr. Stephen Heinemann (Salk Institute, San Diego, Calif.), GluR1 (flop), GluR3 (flop), and GluR6. Plasmids were linearized with BamH1 (NR1100), XhoI (NR2A, GluR1, GluR3) or XbaI (GluR6) prior to in vitro transcription with T3 (GluR1, GluR3, GluR6) or T7 (NR1100, NR2A) RNA polymerase using the Message Machine kit (Ambion, Austin, Tex.). […] RNA solutions (50-70 nl) were injected into oocytes for delivery of NR1100 (5 ng), NR1100:NR2A (1:10 ng), GluR1 (5 ng). GluR3 (5 ng), or GluR6 (20 ng). Oocytes were incubated in ND96 at 18-20° C. for 3-7 days prior to electrophysiological recording.
(§2) Steroid solutions were prepared as 70-100 mM frozen stocks in dimethyl sulfoxide (DMSO). The final DMSO concentration of all recording solutions was between 0.1% to 0.5% and was constant within an experiment.
(§3) Perfusion control and data acquisition were carried out using an automated oocyte electrophysiology workstation that was developed for the rapid collection of concentration-response data and real-time waveform analysis (Yaghoubi et al., Soc. Neurosci. Abstr. 20: 1109 (1995)). […]
(§4) Results are expressed as mean±S.E.M. Statistical comparisons were made using Student's t-test.

NR1/NR2C (NR1100) = NR1/NR2C (NR1100) (Rattus norvegicus, UniProt P35439+Q00961)
[1] = target: T2, NR1100+NR2A NMDA receptor (Rattus norvegicus, UniProt P35439+Q00959); experiment: NMDA-induced currents, Xenopus oocytes, Example 1; type: cell-based
T2 construct: expressed in transfected cells; host or cells: Xenopus oocytes co-injected with NR1100 and NR2A cRNA
Description: as §1, §2, §3, §4

GluR3 AMPA receptor = target: T3, GluR3 AMPA receptor (Rattus norvegicus, UniProt P19492); experiment: Kainate-induced currents, Xenopus oocytes injected with GluR3 cRNA; type: cell-based; conditions: 100 μM kainate, read-out: PS EC50, inhibition of kainate-induced current
T3 construct: expressed in transfected cells; host or cells: Xenopus oocytes injected with GluR3 cRNA
Description: as §1, §2, §3, §4

NR1/NR2B (NR1100) = NR1/NR2B (NR1100) (Rattus norvegicus, UniProt P35439+Q00960)
GluR1 AMPA receptor = target: T4, GluR1 AMPA receptor (Rattus norvegicus, UniProt P19490); experiment: Kainate-induced currents, Xenopus oocytes injected with GluR1 cRNA; type: cell-based; conditions: 100 μM kainate, read-out: PS EC50, inhibition of kainate-induced current
T4 construct: expressed in transfected cells; host or cells: Xenopus oocytes injected with GluR1 cRNA
Description: as §1, §2, §3, §4

NR1/NR2D (NR1100) = NR1/NR2D (NR1100) (Rattus norvegicus, UniProt P35439+Q62645); conditions: read-out: PS EC50, 10 μM NMDA, 10 μM glycine
GluR6 kainate receptor = target: T5, GluR6 kainate receptor (Rattus norvegicus, UniProt P42260); experiment: Kainate-induced currents, Xenopus oocytes injected with GluR6 cRNA; type: cell-based; conditions: 10 μM kainate, maximum inhibition constrained to 100%, read-out: PS EC50, inhibition of kainate-induced current
T5 construct: expressed in transfected cells; host or cells: Xenopus oocytes injected with GluR6 cRNA (concanavalin A treated)
Description: as §1, §2, §3, §4

[2] = tested on: primary cultures of rat hippocampal neurons; experiment: NMDA-induced neuronal death, trypan blue exclusion; type: cell-based; conditions: chronic 16 hour NMDA exposure; DMSO vehicle
Description: Principally neuronal cultures were prepared from hippocampal tissue of fetal Sprague-Dawley rats on day 18 of embryonic development, as previously described (Brewer et al., Brain Research 494: 65-74 (1989)). Briefly, hippocampal cells were dissociated by trituration in Ca^2+/Mg^2+-free Hank's basic salt solution (Gibco) supplemented with 4.2 mM bicarbonate, 1 mM sodium pyruvate, 20 mM HEPES, 3 mg/ml bovine serum albumin (BSA). Dissociated cells were then pelleted by centrifugation (500×g, 4 min). […] Cells were then plated onto poly-L-lysine-coated 24-well culture dishes (Nunclon) at a density of 15,000 cell/cm^2 and maintained in a humidified atmosphere containing 5% CO2/95% air at 37° C. After 48 h, nonneuronal cell division was inhibited by a 48 h exposure to 1 μM cytosine arabinoside. […]
The ability of neurons to exclude trypan blue was used to quantitate cell viability (Dawson et al., Proc Natl Acad Sci USA 88: 6368-6371 (1991)). […] The number of stained and unstained neurons were counted in 4 high-power fields per culture well, using an inverted phase contrast microscope under both bright field and phase contrast settings. […] Percent cell death is expressed as follows: (number of trypan blue stained neurons)/(total number of neurons)×100%.
All data are expressed as mean±standard error of the mean. Statistical significance was evaluated using 95% confidence limits unless otherwise noted.

[3] = read-out: PS EC50, […] μM NMDA, 10 μM glycine

Molecule	EC50 (NR1/NR2A (NR1100)) [µM]	EC50 (NR1100 NMDA receptor) [µM]	EC50 (NR1/NR2C (NR1100); [3]) [µM]	EC50 ([1]; 100 μM NMDA, read-out: steroid EC50, modulation of NMDA response) [µM]	EC50 (GluR3 AMPA receptor) [µM]	EC50 (NR1/NR2B (NR1100); [3]) [µM]	EC50 (GluR1 AMPA receptor) [µM]	EC50 (NR1/NR2D (NR1100)) [µM]	EC50 (GluR6 kainate receptor) [µM]	EC50 [2] [µM]	EC50 (NR1/NR2C (NR1100); read-out: agonist EC50, no PS) [µM]	EC50 ([1]; control, read-out: NMDA EC50) [µM]	EC50 (NR1/NR2B (NR1100); read-out: agonist EC50, no PS) [µM]
pregnenolone sulfate [PS]	21	26	112	32	12	33	43	118	80	–	–	–	–
CN[C@H](CC(=O)O)C(=O)O [NMDA, N-methyl-D-aspartate]	–	–	–	–	–	–	–	–	–	12	24	29	25
